Reference: patent publication US9119808B1, “Treating neurodegenerative diseases with GGA or a derivative thereof” (COYOTE PHARMACEUTICALS, INC., priority 2012, dated 2015)

System: SOD1 mouse model of ALS
Test: SOD1 mouse model of ALS: survival and cat-walk gait (Assay 4)
Assay type: in vivo
Conditions: daily treatments, N=16/treatment
Method: Analyses were conducted using PROC LIFEREG in SAS.
Additionally, three neurological function outcomes were chosen for analysis from those measured on a ‘cat-walk’ at irregular intervals over the duration of the study; stride length (cm), run duration (s), and swing speed (cm/s).
This non-random censoring of the treatment group data precluded using standard comparative statistical methods such as the t-test due the unverifiable compliance of the remaining data with required statistical test assumptions. Consequently, a Monte Carlo estimate of the p-value of the treatment differences was constructed using the bootstrap method.
Survival studies and behavioral tests will be performed in the SOD1 G93A model of ALS. This transgenic mouse harbors a point mutation (G93A), found in familial ALS, in the gene encoding for superoxide dismutase 1 (SOD1). This very well characterized mouse model is widely used in ALS research. […] Motor neuron death in the ventral horn of the spinal cord and loss of myelinated axons in the ventral motor roots lead to paralysis and muscle wasting. Mice initially develop normally and gain weight until approximately 100 days of age. […] To rigorously test the efficacy of candidates in this mouse model, neurological scores are monitored, and motor scores, life span, body weight and mice tested in a battery of behavioral paradigms suitable for motor assessment.

**Q.** `Nc1nc2ccc(OC(F)(F)F)cc2s1` [riluzole, reference compound] was tested. Which “Increase over vehicle (median survival time)” value did it give?
**A.** The value was 6%.
